This assay has as its system Thymidylate synthase (Bos taurus). Description: Inhibition of Calf thymus thymidylate synthase in the presence of 20 uM.

For orientation: inhibition means the share of the control response that was lost under treatment.

The structures appear in SMILES notation.

In the case of `CN(CC1CCc2nc(N)nc(O)c2C1)c1ccc(C(=O)NC(CCC(=O)O)C(=O)O)cc1` (stereo unspecified), the inhibition came out at 50%.

For the origin of these results see ChEMBL document CHEMBL1123906, “Folate analogues. 30. Synthesis and biological evaluation of N10-propargyl-5,8-dideaza-5,6,7,8-tetrahydrofolic acid and related compounds” (J Med Chem, 1987).
